According to patent US4746675A, “External pharmaceutical composition” (Teijin Limited, priority 1983, dated 1988):
Where two headings read alike, the source gives them in different places.

Settings: rat, in vivo
Protocol: An ointment was prepared from 1 part by weight of indomethacin, 10 parts by weight of compound (168) and 89 parts by weight of a hydrophilic ointment (composed of 250 parts of white Vaseline, 220 parts by weight of stearyl alcohol, 120 parts by weight of propylene glycol, 15 parts by weight of sodium laurylsulfate, 0.25 part by weight of ethyl p-hydroxybenzoate, 0.15 part by weight of propyl p-hydroxybenzoate and a small amount of purified water). The back of a rat (body weight about 250 g) was cut by an electric hair-clipper, and 100 mg of the resulting ointment was applied by a finger to a circular unhaired portion, 4 cm in diameter. The blood was drawn from the tail of the rat periodically, and the concentration of indomethacin in the blood was determined periodically by high-performance liquid chromatography.
Various ointments were prepared from 1 part by weight of indomethacin, 10 parts of each of various penetration enhancers shown in Table 2 and the hydrophilic ointment, and tested as in Example 1.

monooleyl glycerin ester
Concentration of indomethacin in the blood (60 min): 1.4 µg/mL | Concentration of indomethacin in the blood (180 min): 2.1 µg/mL | Concentration of indomethacin in the blood (300 min): 1.9 µg/mL | Concentration of indomethacin in the blood (420 min): 1.8 µg/mL | Concentration of indomethacin in the blood (1440 min): 0.6 µg/mL
